From PubChem BioAssay AID603 (National Center for Advancing Translational Sciences (NCATS), 2007)
The list shows a part of the results, in another mix than the full data. Some results for these compounds are left out of this collection, so the calls shown say nothing about other tests. The source made the active and inactive calls. Calls come from the whole dose curve; as a rule, active = well fitted curve in the direction sought with a large enough effect; inconclusive = small, poorly fitted or top-dose-only effect; inactive = flat fitted curve, though single readings scatter.

system: DNA polymerase III holoenzyme (E. coli); assay: qHTS Assay for Inhibitors of DNA Polymerase III Holoenzyme System; settings: reconstituted DNA polymerase III holoenzyme replication, biochemical; at 11.4 µM (top of the series) unless noted
Method: NIH Molecular Libraries Screening Centers Network [MLSCN]
NIH Chemical Genomics Center [NCGC]
Assay Provider: Charles McHenry, University of Colorado
E. coli DNA polymerase III holoenzyme complex was assayed for DNA production by fluorescent detection of the double-stranded DNA product with PicoGreen dye. The holoenzyme complex was reconstituted from the following purified protein components: DNA Polymerase III, beta subunit processivity factor, SSB single-stranded DNA binding protein, and Primase. Single-stranded, circular M13Gori was used as a substrate with dNTPs and NTPs also supplied to the substrate reagent. Compounds from the NCGC collection were incubated with the holoenzyme mixture for 15 min at room temperature to allow binding to occur, and then the reaction was started by the addition of substrate. After 30 min incubation at room temperature, PicoGreen solution containing EDTA was added to stop the reaction and to visualize the double-stranded DNA produced. Reaction progress was measured in a ViewLux CCD imager in fluorescence intensity mode by using 480 nm excitation and 540 nm emission filter set.
NCGC Assay Protocol Summary:
Buffer. 50 mM Hepes-KOH, pH 7.5, 5 % Glycerol, 0.02% NP40, 30 mM potassium;
glutamate, 1.5 mM Magnesium Acetate, 16 uM TCEP.
Buffer in columns 3 and 4 as negative control (no enzyme).
Substrate solution: 5 uM each dATP, dGTP, dCTP and TTP, 50 uM each GTP, CTP, UTP and 200 uM ATP, 1.4 nM M13gori (final concentrations).
Enzyme: 154 nM SSB, 2 nM Primase, 1 nM Beta, 0.35 nM Pol III (final concentrations).
PicoGreen/EDTA: 10 mM Tris-HCl, 10 mM EDTA, 5 uM PicoGreen (final concentrations).
Control titration: ChemBridge 5805060 (from 10 mM, then 1:2, in duplicate) was pin-transferred to upper half of column 2.
Three uL of holoenzyme mixture were dispensed to 1536-well Greiner black solid bottom plates. Compounds and controls (23 nL) were transferred via Kalypsys PinTool. The plates were incubated for 15 min at room temperature, and then 1 uL of substrate solution was added to start the reaction. After room temperature incubation for 35 minutes, 1 uL of PicoGreen solution was added to each well and the plates were read 480 nm excitation and 540 nm emission using ViewLux (Perkin-Elmer) High-throughput CCD imager and fluorescence protocol settings.
Keywords: NIH Roadmap, MLSCN, MLI, MLSMR, qHTS, NCGC, DNA Polymerase III, DNAPol3, DNAPoly3, DNA replication targets
% is set by controls: 0 for no effect and ±100 for the full control effect.

| SMILES | activity change, negative = inhibition |
| --- | --- |
| CN(C)c1cccc(C(=O)NCC2(N(C)C)CCCCC2)c1 | inactive: 3.3% [at 57.1 µM] |
| CN1CC[C@H](OC(=O)[C@](O)(c2ccccc2)C2CCCC2)C1 | inactive: -7.7% |
| O=C(OC1CN2CCC1CC2)C(CO)(c1ccccc1)c1ccccc1 (stereo not given) | inactive: -1% [at 57.1 µM] |
| CN1CCC[C@H](OC(=O)[C@](O)(c2ccccc2)C2CCCC2)C1 | inactive: -11.2% |
| C=C(C)C#C[C@@](O)(C(=O)OC1CCN(C)CC1)c1ccccc1 | inactive: -11% |
